# Yeast mating assay 1: variants of the scFv Ab-14

Target peptide (SARS-CoV-2 spike, HR2 region): PDVDLGDISGINAS

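The starting antibody came from a phage panning campaign against this peptide. In library AAYL49, one, two or three CDR residues were substituted; doubles and triples were drawn at random. Affinity was read by AlphaSeq, a pooled yeast mating assay with surface-displayed partners. After mating in shaken culture at 30 °C for 16 h, diploids were selected and their barcode pairs sequenced. Scores were corrected for input abundance and mapped to Kd with protein pairs of known affinity run in the same pool. The assay was run in three technical replicates.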

The variants keep the light chain, the linker and the frameworks of Ab-14 (scFv order VH, three GGGGS repeats, VL).
VH: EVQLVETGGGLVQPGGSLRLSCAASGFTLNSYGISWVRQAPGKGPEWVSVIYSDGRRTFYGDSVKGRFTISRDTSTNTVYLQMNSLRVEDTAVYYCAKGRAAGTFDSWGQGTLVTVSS
VL: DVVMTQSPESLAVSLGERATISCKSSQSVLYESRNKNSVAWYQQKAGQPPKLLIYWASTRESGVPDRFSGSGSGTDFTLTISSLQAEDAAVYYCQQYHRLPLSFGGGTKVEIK

Changes read parent residue, position, new residue, counted from the first residue of the VH shown. Numbers give log10(Kd / nM), so 0 is 1 nM and 3 is 1 µM. Smaller is tighter. The mean shown is taken over the replicates in which the pair was detected. An entry "nd" has no value in the source: the pair was not observed among the diploids in any replicate. This suggests poor binding but is not conclusive.

changes	mean log10 Kd (nM)	replicates with signal
F27N/F59T/S63W	3.99	2 of 3
I51P/Y52K/R100P	5.21	1 of 3
N30K/S31I/S63V	nd	0 of 3
Y60M/A101E/F105T	3.89	2 of 3
G26Q/Y32T/K65Q	4.13	1 of 3
T28F/Y32Q/R100D	2.35	3 of 3
S35P/D54K/T58F	nd	0 of 3
L29N/G33K/S35L	nd	0 of 3
D54M/R57W/G61K	4.94	3 of 3
G33I/Y52D/A101M	nd	0 of 3
Y32K/T58D/K65D	3.79	1 of 3
T58M/D62W	3.50	2 of 3
I34T/V50T	4.27	2 of 3
V50P/S63E/D106G	5.71	1 of 3
I51R/D54V/V64K	nd	0 of 3
G26S/I34S/S53E	nd	0 of 3
F27A/F105C/S107L	nd	0 of 3
S53Q/S63K	nd	0 of 3
S35W/V50W/G99K	6.47	1 of 3
G26W/T28M/F105W	nd	0 of 3
D54L/R56S/K65A	3.61	2 of 3
N30V/G33L/R57K	nd	0 of 3
T58C/G61A/R100T	1.30	3 of 3
L29K/A102F	3.45	1 of 3
G33Y/D54G/S63I	nd	0 of 3
D54S/F59K/A101D	nd	0 of 3
Y60N/D62S/K65D	nd	0 of 3
S35Y/V50Q/G99Y	4.17	1 of 3
F27I/I34A/G103S	nd	0 of 3
F27A/S35T/D106I	nd	0 of 3
F27C/S31D/A102C	4.29	1 of 3
F105T/D106M/S107G	1.41	3 of 3
I34W/V50Y/G99H	3.25	1 of 3
Y60D/A101S/G103C	nd	0 of 3
Y60K/D62H/D106Y	nd	0 of 3
G26N/N30P/S31C	3.91	3 of 3
N30Y/S53R/G103R	nd	0 of 3
S31K/Y60C/G99S	4.98	3 of 3
T58L/T104W	nd	0 of 3
T28K/I34Q/T104C	nd	0 of 3
I51Y/G55H/S107P	4.78	1 of 3
G26S/G103I/F105C	nd	0 of 3
F27N/D54Y/R100D	3.65	2 of 3
I51G/G103R/S107Q	nd	0 of 3
G33E/D62Q/F105R	5.17	1 of 3
V50G/S53Y/G55L	nd	0 of 3
N30G/Y32W/S107C	3.37	3 of 3
V50I/I51G/F59L	nd	0 of 3
L29V/I51G/S53G	nd	0 of 3
I34V/G99H	1.62	3 of 3
V50H/V64A/K65H	nd	0 of 3
G26N/G55K/F105M	nd	0 of 3
N30C/G33H/F105S	nd	0 of 3
N30L/F59N/G61Y	nd	0 of 3
N30V/Y32R/Y60Q	3.55	2 of 3
G33R/V50K/G103F	nd	0 of 3

As a blank, each scFv also met three strains without target: over library AAYL49, 15% of these pairings were detected, typically at 4.06 and seldom below 2.83. Parent in this assay: reference entry 0.65, copy in this library 4.11 (one replicate of three).

Reference: Engelhart et al. 2022, doi:10.1038/s41597-022-01779-4. File: FLAb, binding data.